Results as given in patent publication EP4684787A1, “PHARMACEUTICAL COMPOSITION CONTAINING DIPEPTIDYL PEPTIDASE SMALL MOLECULE INHIBITOR” (Haisco Pharmaceuticals Pte. Ltd., priority 2023, dated 2024).

Target: Recombinant human DPP1 enzyme
Conditions: substrate Gly-Arg-AMC, fluorescence

- IC50: 1.6 nM
Compound: Cn1c(=O)oc2ccc(-c3ccc(C[C@@H](C#N)NC(=O)[C@@H]4CNCCCO4)c(F)c3)cc21 [Compound A, (S)-N-((S)-1-cyano-2-(2-fluoro-4-(3-methyl-2-oxo-2,3-dihydrobenzo[d]oxazol-5-yl)phenyl)ethyl)-1,4-oxazepane-2-carboxamide]
